The text below walks through data of ChEMBL document CHEMBL5244234, “Janus kinases (JAKs): The efficient therapeutic targets for autoimmune diseases and myeloproliferative disorders” (Eur J Med Chem, 2020).

By UniProt entry, the sequences of proteins in these tests, tags left out. Where a name states a change or a piece, a line headed by the entry shows the natural chain unless it says otherwise.
UniProt P29597: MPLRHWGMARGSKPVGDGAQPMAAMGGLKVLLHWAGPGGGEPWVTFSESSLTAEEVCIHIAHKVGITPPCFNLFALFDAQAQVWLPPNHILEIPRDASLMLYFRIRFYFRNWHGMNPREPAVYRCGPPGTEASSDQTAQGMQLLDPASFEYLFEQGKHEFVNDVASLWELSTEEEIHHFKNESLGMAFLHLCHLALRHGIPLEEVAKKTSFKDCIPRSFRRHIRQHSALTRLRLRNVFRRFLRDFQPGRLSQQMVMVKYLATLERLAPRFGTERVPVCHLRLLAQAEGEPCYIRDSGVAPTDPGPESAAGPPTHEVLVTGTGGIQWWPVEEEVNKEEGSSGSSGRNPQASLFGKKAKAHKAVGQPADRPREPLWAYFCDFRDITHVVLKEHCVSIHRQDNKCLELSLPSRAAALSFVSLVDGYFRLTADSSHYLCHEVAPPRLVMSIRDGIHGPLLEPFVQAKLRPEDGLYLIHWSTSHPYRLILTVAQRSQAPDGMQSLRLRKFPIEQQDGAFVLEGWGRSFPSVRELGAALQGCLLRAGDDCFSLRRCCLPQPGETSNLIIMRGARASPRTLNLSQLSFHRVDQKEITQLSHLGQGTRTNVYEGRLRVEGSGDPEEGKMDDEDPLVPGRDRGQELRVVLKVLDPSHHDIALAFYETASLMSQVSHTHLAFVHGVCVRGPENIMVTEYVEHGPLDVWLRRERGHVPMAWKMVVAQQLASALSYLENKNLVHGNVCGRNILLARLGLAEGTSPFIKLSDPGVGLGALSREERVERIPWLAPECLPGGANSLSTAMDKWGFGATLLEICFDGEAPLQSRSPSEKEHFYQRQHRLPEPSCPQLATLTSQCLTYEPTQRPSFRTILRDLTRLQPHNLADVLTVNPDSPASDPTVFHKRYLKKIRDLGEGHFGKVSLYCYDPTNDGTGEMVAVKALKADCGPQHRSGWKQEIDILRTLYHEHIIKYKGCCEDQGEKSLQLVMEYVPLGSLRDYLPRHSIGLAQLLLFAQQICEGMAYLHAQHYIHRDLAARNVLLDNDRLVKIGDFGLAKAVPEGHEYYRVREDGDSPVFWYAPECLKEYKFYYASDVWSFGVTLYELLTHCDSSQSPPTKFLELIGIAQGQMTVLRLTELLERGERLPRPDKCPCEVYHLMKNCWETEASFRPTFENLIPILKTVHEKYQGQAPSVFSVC

Assay [1] can be described thus: Inhibition of IL-2 induced human T cell proliferation preincubated with compound for 30 mins followed by IL-2 induction and measured after 3 days in the presence of [3H]thymidine by scintillation counter analysis. The class given is functional, cell-based.
Assay [2] concerns the target Non-receptor tyrosine-protein kinase TYK2 (Homo sapiens, UniProt P29597). As to the kind of experiment: Inhibition of TYK2 (unknown origin) assessed as inhibition constant.

pIC50, pKi: −log10 of the molar value.

The term pIC50 denotes the negative decadic logarithm of the IC50, by convention in mol/L. With `C[C@H]1CN(C(=O)CC#N)[C@]12CCN(c1ncnc3[nH]ccc13)C2` [DELGOCITINIB], in assay [1], the pIC50 was 8.05.
As usually defined, the pKi is −log10 of the Ki, conventionally taken in molar units. For the molecule `CC[C@@](C)(Nc1ccnc(-c2c[nH]c3ncccc23)n1)C(=O)NCC(F)(F)F` [DECERNOTINIB], in assay [2], the pKi was 7.96.
